Source: ChEMBL document CHEMBL1158318, “Two 5-HT 1A Receptor-Interactive Tryptamine Derivatives from the Unripe Fruit of Evodia rutaecarpa” (J Nat Prod, 1997)

By UniProt entry, the sequences of proteins in these tests, tags left out.
UniProt P08908, whole entry: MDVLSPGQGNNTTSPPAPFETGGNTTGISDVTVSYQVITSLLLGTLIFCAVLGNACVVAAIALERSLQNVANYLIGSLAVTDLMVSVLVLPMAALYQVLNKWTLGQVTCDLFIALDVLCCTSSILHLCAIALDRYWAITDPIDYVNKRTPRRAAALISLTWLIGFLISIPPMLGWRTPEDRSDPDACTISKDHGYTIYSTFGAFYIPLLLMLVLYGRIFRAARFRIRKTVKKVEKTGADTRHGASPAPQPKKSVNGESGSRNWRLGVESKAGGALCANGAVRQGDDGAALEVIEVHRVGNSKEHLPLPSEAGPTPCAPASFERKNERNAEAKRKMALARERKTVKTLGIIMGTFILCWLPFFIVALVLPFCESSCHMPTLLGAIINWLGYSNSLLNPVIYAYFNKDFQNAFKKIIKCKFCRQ

Target: 5-hydroxytryptamine receptor 1A (Homo sapiens, UniProt P08908)
Assay: Displacement of [3H]8-OH-DPAT from 5HT1A receptor by vacuum filtration

SMILES: COc1ccc2[nH]cc(CCN(C)C)c2c1 [MEBUFOTENIN]
- Ki: 28 nM
